Among the data in patent US20070059731A1 are level of ubiquitination detected by Western blot analysis of cell extracts, relative to full length Jun values, retold here.

Protein sequences, listed by entry. Tags and fused reporters are not part of them. Residues count along the entry.
UniProt P05412, 257-318: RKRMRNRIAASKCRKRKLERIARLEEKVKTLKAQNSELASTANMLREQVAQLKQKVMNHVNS

This experiment addresses bJun-CC (UniProt P05412). Briefly: cell-based or functional assay.

In turn, YN-Ub (from UniProt P0CG47 1-76) came in with a level of ubiquitination detected by Western blot analysis of cell extracts, relative to full length Jun of 10 fold lower.
